From patent publication US20250034165A1, “COMPOUND CONTAINING CYCLOALKYL OR HALOALKYL” (CHIA TAI TIANQING PHARMACEUTICAL GROUP CO., LTD., priority 2021, published 2025)

What was measured:
[1] = In vitro stability in liver microsomes; conditions: Human liver microsome
Protocol: 300 μL of the final incubation system contains 30 μL of liver microsomes (protein concentration: 0.15 mg/mL), 30 μL of NADPH+MgCl2, 3 μL of the test compound (in acetonitrile), and 237 μL of PBS buffer (pH 7.4). The proportion of the organic solvent (acetonitrile) was 1%. Samples were prepared in duplicate of 0.3 mL for each species (e.g., human or mouse liver microsomes). Tubes each containing 270 μL of a mixed solution of substrate and enzyme […] were pre-incubated at 37° C. for 5 min. 30 μL of NADPH+MgCl2 was added and the mixture was mixed. 50 μL of the mixture was taken at 0 min, 15 min, 30 min, and 60 min, and 300 μL of glacial acetonitrile containing an internal standard was added to terminate the reaction.
50 μL of the incubated sample was added with 300 μL of glacial acetonitrile containing an internal standard (20 ng/mL diazepam) for precipitation. The mixture was vortexed for 5 min, and centrifuged (12,000 rpm, 4° C.) for 10 min. 75 μL of supernatant was taken and diluted with 75 μL of ultrapure water. After being homogeneously mixed, 0.5 μL of the resulting sample was injected for analysis.

[2] = system: PC-9 EGFR-Del19-T790M-C797S cells; test: Inhibition of proliferation of PC-9-EGFR (Del19 T790M C797S) cells, CCK-8; conditions: read-out: PC-9-EGFR (Del19 T790M C797S) cell inhibitory activity IC50, 72 h
Protocol: PC-9 EGFR-Del19-T790M-C797S cells in the logarithmic growth phase and good conditions were taken, washed with PBS, digested with pancreatin, terminated with a complete medium, collected and added to a centrifuge tube, adjusted to a cell density of 2×10^4 cells/mL, and seeded in a 96-well plate (100 μL/well). Meanwhile, compounds were loaded using a nanoliter pipettor resulting in the final concentrations of the compounds of 1000 nM-0.06 nM, and a control was set, replicate wells for each concentration. After 72 h of incubation in the cell incubator, the assay reagent CCK-8 (manufacturer: Dojindo Laboratories, Beijing; 10 μL/well) was added. After 2 h of incubation in the cell incubator, absorbance was measured at 450 nm on a PerkinElmer Envision microplate reader, and the inhibition rate was calculated.
Inhibition rate (%)=(mean value of negative control group-mean value of experimental group)/(mean value of negative control group−mean value of blank group)×100%.
A dose-response curve was fitted by four-parameter analysis, with the logarithm of compound concentration serving as abscissa and inhibition rate serving as ordinate, such that IC50 was calculated.

Compound | Stability in liver microsomes (residual %, T = 60 min) [1] [%] | IC50 [2] [nM]
Cc1cc2cc(n1)-c1cnn(C3CC3)c1OCCC[C@@H](C)CN1C(=NC2=O)Nc2ccc(NC3CCN(C)CC3)cc21 | 86.29 | 
Cc1cc2cc(n1)-c1cnn(C)c1OCCC[C@@H](C1CC1)CN1C(=NC2=O)Nc2cc(NC(C)C3COC3)ccc21 (single isomer, unassigned) |  | < 50
